Measured values: patent US20110319464A1, “METHODS FOR TREATING BENIGN PROSTATIC HYPERPLASIA” (KISSEI PHARMACEUTICAL CO., LTD., priority 2007, published 2011)

Protein sequences, listed by entry. Tags and fused reporters are not part of them. Lines headed by an entry give the natural chain unless they say otherwise; changes in a name come on top.
UniProt P35348: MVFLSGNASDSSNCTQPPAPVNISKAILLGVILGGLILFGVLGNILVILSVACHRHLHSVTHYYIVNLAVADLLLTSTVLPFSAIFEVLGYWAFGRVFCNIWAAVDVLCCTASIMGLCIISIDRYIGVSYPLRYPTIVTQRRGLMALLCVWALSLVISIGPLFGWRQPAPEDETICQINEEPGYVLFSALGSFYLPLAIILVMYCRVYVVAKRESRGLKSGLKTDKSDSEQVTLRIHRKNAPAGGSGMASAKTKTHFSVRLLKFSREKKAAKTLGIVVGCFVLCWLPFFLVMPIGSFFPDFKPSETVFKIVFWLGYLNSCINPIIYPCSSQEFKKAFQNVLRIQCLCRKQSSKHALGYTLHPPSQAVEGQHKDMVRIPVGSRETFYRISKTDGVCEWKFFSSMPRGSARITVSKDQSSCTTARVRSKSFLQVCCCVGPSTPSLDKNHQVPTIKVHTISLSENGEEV

What was measured:
[1] = Pharmacokinetic Study on Silodosin (Study US011), once daily for seven days, fed state; conditions: 4 mg twice daily 7 days (simulated from Table 2a)
[2] = system: symptoms associated with BPH; experiment: Efficacy Studies on Silodosin, studies A-E compared (once daily vs twice daily); type: in vivo, human; conditions: Table 8; despite a two-fold increase in Cmax
Text: In addition, the results for IPSS/AUASS for studies A, B, D and E are illustrated in FIGS. 3 to 6, respectively, and the results for Qmax for studies A, B, D and E are illustrated in FIGS. 7 to 10, respectively.

[3] = target: α1A receptor (Homo sapiens, UniProt P35348); conditions: background statement; cited from earlier work

SMILES: C[C@H](Cc1cc2c(c(C(N)=O)c1)N(CCCO)CC2)NCCOc1ccccc1OCC(F)(F)F [Silodosin]
- Estimated Blood Plasma Concentrations ([1]; Day 7, 0 h (t0)): 1.73 ng/mL
- Estimated Blood Plasma Concentrations ([1]; Day 7, 0.5 h): 2.81 ng/mL
- Estimated Blood Plasma Concentrations ([1]; Day 7, 1 h): 9.77 ng/mL
- Estimated Blood Plasma Concentrations ([1]; Day 7, 1.5 h): 19.31 ng/mL
- Estimated Blood Plasma Concentrations ([1]; Day 7, 2 h): 31.48 ng/mL
- Estimated Blood Plasma Concentrations ([1]; Day 7, 3 h): 32.45 ng/mL
- Estimated Blood Plasma Concentrations ([1]; Day 7, 4 h): 19.56 ng/mL
- Estimated Blood Plasma Concentrations ([1]; Day 7, 6 h): 7.89 ng/mL
- Estimated Blood Plasma Concentrations ([1]; Day 7, 8 h): 5.93 ng/mL
- Estimated Blood Plasma Concentrations ([1]; Day 7, 12 h): 1.73 ng/mL
- Estimated Blood Plasma Concentrations ([1]; Day 7, 16 h): 19.56 ng/mL
- Estimated Blood Plasma Concentrations ([1]; Day 7, 24 h): 3.31 ng/mL
- cardiovascular adverse events (such as orthostatic hypotension), 8 mg once daily compared with 4 mg twice daily, relative to placebo controls [2]: does not produce a concomitant increase in cardiovascular adverse events
- selectivity for the α1A receptor relative to α1B and α1D receptors [3]: high selectivity
